Test results reported in PMC6085299 (Nature Communications, 2018).

Protein sequences, listed by entry. Tags and fused reporters are not part of them. Residues count along the entry.
UniProt Q13526, 51-163 K77Q/K82Q limits assumed: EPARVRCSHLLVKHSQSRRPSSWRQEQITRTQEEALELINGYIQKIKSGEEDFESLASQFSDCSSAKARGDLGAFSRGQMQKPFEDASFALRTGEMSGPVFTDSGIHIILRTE

Molecular target: Pin1 (Homo sapiens, UniProt Q13526, K77Q/K82Q)
Assay: co-crystal structure ([…] Å), […]-HSQC NMR; Ki from chymotrypsin-coupled PPIase assay

`O=[As]O[As]=O` (stereo not shown) [ATO, Arsenic trioxide] gave a Ki of 0.116 µM.
